Results on five compounds are retold here after ChEMBL document CHEMBL1127540, “Three-dimensional pharmacophores from binding data” (J Med Chem, 1994).

Molecules are shown by their SMILES.

For this test, the target named is Human immunodeficiency virus type 1 protease (Human immunodeficiency virus 1, UniProt Q72874). As to the kind of experiment: Binding affinity to HIV-1 protease.
Compound `CC[C@H](C)[C@H](NC(=O)[C@H]1CCCN1C(=O)[C@H](O)[C@@H](Cc1ccccc1)NC(=O)OC(C)(C)C)C(=O)N[C@H](C(=O)OC)C(C)C` had a Ki of 347 µM.
The compound `CC[C@H](C)[C@H](NC(=O)[C@H]1CCCN1C(=O)[C@@H](O)[C@H](Cc1ccccc1)NC(=O)OC(C)(C)C)C(=O)N[C@H](C(=O)OC)C(C)C` showed a Ki of 39.8 µM.
Compound `CC[C@H](C)[C@H](NC(=O)[C@H]1CCCN1C(=O)[C@@H](O)[C@@H](Cc1ccccc1)NC(=O)OC(C)(C)C)C(=O)N[C@H](C(=O)OC)C(C)C` showed a Ki of 389 µM.
Compound `CC[C@H](C)[C@H](NC(=O)[C@H]1CCCN1C(=O)[C@H](O)[C@H](Cc1ccccc1)NC(=O)OC(C)(C)C)C(=O)N[C@H](C(=O)OC)C(C)C` showed a Ki of 363 µM.
As to `CC[C@H](C)[C@H](NC(=O)[C@H]1CCCN1C[C@H](O)[C@H](Cc1ccccc1)NC(=O)[C@H](CC(N)=O)NC(=O)[C@H](CC(C)C)NC(C)=O)C(=O)OC`, the affinity, expressed as Ki, was 4.57 µM.

The Ki is a measure of affinity in units of concentration, obtained from inhibition or displacement.
